Values quoted from earlier work in article PMC9400206.

Sequences of proteins named here, by UniProt entry; tags and fusion partners are left off. Residues count along the entry.
UniProt P10721, 26-524: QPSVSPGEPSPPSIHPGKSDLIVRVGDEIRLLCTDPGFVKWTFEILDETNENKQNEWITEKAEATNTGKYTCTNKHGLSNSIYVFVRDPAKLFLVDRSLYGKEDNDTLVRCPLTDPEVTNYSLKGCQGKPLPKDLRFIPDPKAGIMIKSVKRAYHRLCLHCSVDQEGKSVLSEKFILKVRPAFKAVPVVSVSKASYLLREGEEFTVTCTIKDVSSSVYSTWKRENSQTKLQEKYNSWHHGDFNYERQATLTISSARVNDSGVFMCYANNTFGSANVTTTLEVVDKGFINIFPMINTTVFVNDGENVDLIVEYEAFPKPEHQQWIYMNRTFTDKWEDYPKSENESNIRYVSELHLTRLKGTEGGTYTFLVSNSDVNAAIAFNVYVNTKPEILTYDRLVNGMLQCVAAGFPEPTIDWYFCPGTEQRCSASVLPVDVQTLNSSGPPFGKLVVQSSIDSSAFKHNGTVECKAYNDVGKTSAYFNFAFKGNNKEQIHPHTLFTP
UniProt P21583, 26-190: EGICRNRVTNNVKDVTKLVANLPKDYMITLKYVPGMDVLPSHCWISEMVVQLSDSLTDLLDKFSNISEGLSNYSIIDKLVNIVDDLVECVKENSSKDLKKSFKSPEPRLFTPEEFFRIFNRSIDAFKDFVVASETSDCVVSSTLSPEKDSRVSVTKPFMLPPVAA

Target: KIT (Homo sapiens) (UniProt P10721)

Substance: SCF (from UniProt P21583)
- Kd: 4 nM and 0.57 nM

Values joined by “and” are separate entries in the source; they are usually repeats but may differ in a detail not shown here. Equal values may be shown once.
